Shown are actives, neighbours in structure and some others; about 0.78% of the full set was active somewhere.
PINK1 modulator = PINK1 expression modulation; PINK1 immunofluorescence, high-content cytometry, 24 h; Potency, µM (highest dose often 76.6 µM), most hits filed as activators; actives 0.2% (n = 410,000); active = well fitted activation curve with a large enough effect; inconclusive = small, poorly fitted or top-dose-only effect; cell line not stated here; also: nearly all actives have a fitted effect of over 65% in size
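Measures PINK1 amount and localization on or inside mitochondria by immunofluorescence. Stable cells get compounds at 5 concentrations for 24 hours before fixation and staining; CCCP controls included.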
RXFP1 agonist = activates the human relaxin receptor RXFP1; Q9HBX9; HEK293T-RXFP1 cAMP TR-FRET, 30 min; response scale: percent of porcine relaxin response, buffer zero; actives 0.3% (n = 370,000); Potency, µM (titrated, usually from 57.5 µM), hits mostly activators; also: nearly all actives have a fitted effect of over 60% in size
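Agonist response is measured as cAMP accumulation in an RXFP1-transfected HEK293T line under PDE4 inhibition. Values are scaled between buffer-only and 29 nM porcine relaxin, and EC50s come from standard Hill equation fits.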
RXFP1 antag = antagonists of human relaxin receptor RXFP1 | Q9HBX9 | HEK293-RXFP1, relaxin-stimulated cAMP HTRF, 30 min; active compounds read low | activity change, negative = inhibition, % at 57.5 µM | actives 0.59% (n = 350,000);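 active = activity change of -60% or lower, but not beyond a set lower limit; inconclusive = change between -60% and -40%, or beyond the set limit; inactive = change above -40%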
TCR act = T cell receptor activation. primary human leukocytes, anti-CD3, IL-2 HTRF, 48 h. Potency, µM (series often up to 9.22 µM), usual class: activators. 330,000 tested, under 10 active. AID 504894
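Primary human leukocytes incubated 48 hr with anti-CD3 beads plus compound, without co-stimulation. Secreted IL-2 measured by HTRF (europium cryptate/d2 anti-IL-2 pair, 320 nm excitation, 665 nm emission).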
IL2 activator = IL-2 activation. IL-2 activation reporter assay, cell-based qHTS; stimulated with anti-CD3/CD4/CD28 beads; in transgenic mouse T cells. activation, % (series mostly up to about 46 µM). actives 0.065% (n = 360,000). AID 652025; in the data active = activation above about 50%; inconclusive = mostly about 30% to 49%
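Unstimulated transgenic mouse T cells preincubated 60 min with compound, then stimulated with anti-CD3/anti-CD4-coated beads plus anti-CD28 for 18 h at 37 degrees C. IL-2 response read as EGFP and DsRed fluorescence by plate cytometry.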
miR-21 FLuc = miR-21 reporter, rising signal; 340,000 tested, under 10 active; Potency, µM (highest dose often 38.3 µM); HeLa miR-21 FLuc reporter, luciferase, 48 h; active = well fitted rising curve with a large enough effect; inconclusive = small, poorly fitted or top-dose-only effect; inactive = no such curve, though single readings can be large or run the other way;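 further: miR-21 action dims this reporter so a rising signal means less miR-21 action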
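HeLa cells endogenously expressing miR-21, stably carrying CMV-driven firefly luciferase with a downstream miR-21 binding site, 2000 cells/well. Titrations up to approximately 40 uM, 48 hours; luciferase luminescence read.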
A number is an active result; – = inactive; ? = inconclusive; · = not tested or not shown. Unless noted, calls follow the shape of the dose curve; as a rule, active = well fitted curve in the direction sought with a large enough effect; inconclusive = small, poorly fitted or top-dose-only effect, or another doubt; inactive = no such curve, though single readings can be large; an effect the other way counts as inactive or inconclusive.

SMILES | PINK1 modulator | RXFP1 agonist | RXFP1 antag | TCR act | IL2 activator | miR-21 FLuc
COc1ccc(C(=O)/C(C#N)=N/Nc2cccc([N+](=O)[O-])c2)cc1 | 14µM | – | – | – | – | –
N#C/C(=N\Nc1cccc(Cl)c1)C(=O)c1ccccc1 | 25µM | – | – | – | – | –
CC(NC(=O)C1CCOCC1)c1nnc2n1CCN(Cc1ccc3cccnc3c1)CC2 (stereo not given) | – | · | · | · | · | ·
Cc1c(C(=O)NN2CCCCC2)nn(-c2ccc(Cl)cc2Cl)c1-c1ccc(Cl)cc1 | · | · | -71 | · | · | ·
Cc1cccc(C(=O)NCC2Cc3cc(F)cc(-c4cnccn4)c3O2)n1 (stereo not given) | – | · | · | · | · | ·
Cc1ccc(/C=C2/SC(=S)N(c3ccc(S(=O)(=O)Nc4nccs4)cc3)C2=O)cc1 | – | – | -67 | – | – | –
O=C1/C(=C\c2ccccn2)SC(=S)N1c1ccc(S(=O)(=O)Nc2nccs2)cc1 | – | – | -81 | – | – | –
COc1ccc(/C=C2\SC(=O)N(CCC(=O)Nc3ccc(S(=O)(=O)Nc4nccs4)cc3)C2=O)cc1 | – | – | – | – | – | –
COc1ccc(/C=C2/SC(=S)N(c3ccc(S(=O)(=O)Nc4nccs4)cc3)C2=O)cc1 | – | – | -80 | – | – | –
Cc1ccc(Oc2ccc3c(c2)C(=O)N(c2ccc(S(=O)(=O)Nc4nccs4)cc2)C3=O)cc1 | – | – | -107 | – | – | –
O=C(Nc1ccc(S(=O)(=O)Nc2nccs2)cc1)c1cccc(N2C(=O)c3ccccc3C2=O)c1 | – | – | – | – | – | –
CCC1C(=O)NCCN1Cc1ccc2c(c1)CN(Cc1cccc(OC)c1OC)CCO2 (stereo not given) | – | · | · | · | · | ·
COc1ccc(CN2C[C@H](Sc3nc4ccccc4[nH]3)C[C@H]2C(=O)N2CCCN(C)CC2)cc1C | – | · | · | · | · | ·
Cc1cc(SCC(=O)N/N=C/c2ccc(O)c(O)c2)nc2ccccc12 | – | – | -67 | – | – | –
Cc1cc(SCC(=O)N/N=C/c2ccc(O)cc2O)nc2ccccc12 | – | – | – | – | – | –
COc1ccccc1CCC(=O)NC1CCCN(c2ccc(C(F)(F)F)cn2)C1 (stereo not given) | – | – | -99 | – | – | –
COC(=O)c1cc(CNC(=O)c2cccc3ccccc23)cc(NC(=O)c2ccccc2OC)c1 | – | · | · | · | · | ·
O=C(Nc1cccc(N2CCC(NCc3cnn(-c4cccc(F)c4)c3)CC2)c1)c1ccncc1 | – | · | · | · | · | ·
CCc1nc2ccccc2n(CCOCCn2c(=O)c(CC)nc3ccccc32)c1=O | 10µM | – | – | · | – | –
CO[C@H]1[C@H](NC(=O)c2ccncc2)c2ccccc2C12CCN(C(=O)c1ccoc1)CC2 | – | · | · | · | · | ·
CCc1c(C)nc2ncnn2c1N1CCC(C(=O)Nc2ccccc2)CC1 | 13µM | – | – | · | – | –
Cc1c(C(=O)NCC2COCCO2)cnn1-c1ncc2c(n1)-c1ccccc1CC2 (stereo not given) | – | · | · | · | · | ·
O=C(O)c1ccc(/C=N\Nc2ccc(S(=O)(=O)N3CCOCC3)cc2[N+](=O)[O-])cc1 | – | – | – | – | – | –
Cc1ccc(-n2c(O)c(/C=N/Nc3ccc(S(=O)(=O)N4CCOCC4)cc3[N+](=O)[O-])c3ccccc3c2=O)c(C)c1 | ? | – | -94 | – | – | ?
Cc1nnsc1C(=O)NCC1Cc2cccc(-c3ncccn3)c2O1 (stereo not given) | – | · | · | · | · | ·
CC(C)(C)CC(C)(C)NC(=O)Nc1cccc([N+](=O)[O-])c1 | 14µM | – | – | – | – | ?
O=C(Nc1ccc([N+](=O)[O-])cc1)Nc1ccc([N+](=O)[O-])cc1 | · | · | – | · | · | ·
CC(C)(C)c1ccc(C(=O)Nc2cccc([N+](=O)[O-])c2)cc1 | 45µM | – | – | – | – | –
O=C(Nc1ccc(Oc2ccc(NC(=O)Nc3ccc([N+](=O)[O-])cc3)cc2)cc1)Nc1ccc([N+](=O)[O-])cc1 | 28µM | – | – | – | – | –
